Experimental data from US11028051B2.

What was measured:
[1] = system: all ~42 bromodomains; assay: BROMOscan competitive binding experiment at a single concentration; conditions: 1 μM, FIG. 4
[2] = system: c-Myc expression in HDMB03 cells; assay: c-Myc expression inhibition, high content microscopy (HCM); assay type: cell-based, human; conditions: read-out: c-Myc expression EC50
[3] = system: SEM cells; assay: anti-proliferative activity; conditions: read-out: EC50 (μM) SEM; Table 5

Compound: Cc1sc2c(c1C)C(c1ccc(Cl)cc1)=N[C@@H](CC(=O)OC(C)(C)C)c1nnc(C)n1-2
- activity across bromodomain families [1]: activity only versus the BET family
- EC50 [2]: 0.02 µM
- EC50 [3]: 0.03 µM
